Data on three compounds can be found in patent US10189796B2, “[4-(1,3,3-trimethyl-2-oxo-3,4-dihydro-1H-quinoxalin-7-yl)phenoxy]ethyloxy compound or salt thereof” (SANTEN PHARMACEUTICAL CO., LTD., priority 2015, dated 2019).

Molecules are shown by their SMILES.

For the experiment, the system named is IL-6 production in human corneal epithelium cell line (HCE-T). Briefly: IL-6 production inhibitory action evaluation test (LPS stimulation, HTRF). The format is cell-based. To be noted: IL-6 production inhibition, 4 hours. The protocol:
To evaluate the action of the present compounds as a GR agonist, IL-6 production inhibitory action in human corneal epithelial cell line after LPS stimulation was examined The IL-6 production was measured by using the HTRF method (Cat No. 62IL6PEB manufactured by Cisbio Bioassays, Inc.) according to the attached protocol. The specific method is described below.
LPS solution: After dissolving LPS in PBS(−), the resulting solution was diluted with a culture solution, whereby an LPS solution with a 1 μg/mL concentration was prepared.
After dissolving the test compound in dimethylsulfoxide, the solution was diluted with a 10% FBS-DMEM/Ham's F12 medium, whereby a 100 μM of the test compound solution was prepared. […] In addition, DEX was similarly dissolved, whereby a 100 μM concentration of the DEX solution was prepared, and an IL-6 production inhibitory ratio of DEX was measured, and used for calculation of Efficacy (% DEX).
Used cells: human corneal epithelium cell line (HCE-T) (RIKEN, Institute of Physical and Chemical Research) […]
FBS-DMEM/Ham's F12 medium was added. • 3) Test compound solution was added with each 10 μL/well. • 4) LPS solution was added with each 10 μL/well. • 5) The sample to which 1% dimethylsulfoxide-containing 10% FBS-DMEM/Ham's F12 medium was added with each 10 μL/well in place of each test compound solution, and 10% FBS-DMEM/Ham's F12 medium was added in place of the LPS solution was made a negative control. • 6) The sample in which 1% dimethylsulfoxide-containing 10% FBS-DMEM/Ham's F12 medium was added with each 10 μL/well in place of each test compound solution was made a positive control. • 7) After completion of 4 hours cultivation, the supernatant was recovered and the amount of IL-6 released in the supernatant was measured by using an HTRF human IL-6 Kit. • 8) The IL-6 production inhibitory ratio was calculated according to the following calculation formula. […]
The IL-6 production inhibitory ratio (%) was calculated by the following formula. […]
In addition, IC50 was calculated according to a conventional method. […]
A general note: In TR-FRET formats the signal depends on donor and acceptor labels being close together.
For orientation: IC50 means the concentration that gives 50% inhibition. The low end stands for higher potency, the high end for lower potency. As for `COc1cc(OC[C@H](C)O)ccc1-c1ccc2c(c1COc1cc(F)ccc1C)N(C)C(=O)C(C)(C)N2` [Compound 1-1, (S)-8-(5-fluoro-2-methylphenoxymethyl)-7-[4-(2-hydroxypropyl)oxy-2-methoxy-phenyl]-1,3,3-trimethyl-3,4-dihydro-1H-quinoxalin-2-one], the IC50 was 33 nM.
The figure for `COc1cc(OC[C@@H](O)CCO)ccc1-c1ccc2c(c1COc1cc(F)ccc1C)N(C)C(=O)C(C)(C)N2` [Compound 2-1, (S)-7-[4-(2,4-dihydroxybutyl)oxy-2-methoxyphenyl]-8-(5-fluoro-2-methyl-phenoxymethyl)-1,3,3-trimethyl-3,4-dihydro-1H-quinoxalin-2-one] is 15 nM; for `COc1ccc(CO)cc1-c1ccc2c(c1COc1cc(F)ccc1C)N(C)C(=O)C(C)(C)N2` [Control compound B, 8-(5-fluoro-2-methylphenoxymethyl)-7-(5-hydroxymethyl-2-methoxyphenyl)-1,3,3-trimethyl-3,4-dihydro-1H-quinoxalin-2-one, reference compound] it is 123 nM.
